Results published in ChEMBL document CHEMBL1909046, “DrugMatrix in vitro pharmacology data”.

Amino acid sequences for entries named in this document (tags omitted). A change or cut given only in a name is not applied to a line headed by its entry.
UniProt P41145: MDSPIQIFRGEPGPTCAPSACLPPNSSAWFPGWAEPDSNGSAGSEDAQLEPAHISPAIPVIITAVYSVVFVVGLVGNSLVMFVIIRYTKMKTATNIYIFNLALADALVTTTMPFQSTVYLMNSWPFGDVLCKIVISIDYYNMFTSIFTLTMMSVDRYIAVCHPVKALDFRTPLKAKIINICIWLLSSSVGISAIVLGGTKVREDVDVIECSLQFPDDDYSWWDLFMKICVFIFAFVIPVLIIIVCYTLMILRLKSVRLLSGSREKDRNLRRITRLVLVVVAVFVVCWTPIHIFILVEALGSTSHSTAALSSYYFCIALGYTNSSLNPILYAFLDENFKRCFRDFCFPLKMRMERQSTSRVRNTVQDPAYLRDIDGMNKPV
UniProt P35372, whole entry, looked up: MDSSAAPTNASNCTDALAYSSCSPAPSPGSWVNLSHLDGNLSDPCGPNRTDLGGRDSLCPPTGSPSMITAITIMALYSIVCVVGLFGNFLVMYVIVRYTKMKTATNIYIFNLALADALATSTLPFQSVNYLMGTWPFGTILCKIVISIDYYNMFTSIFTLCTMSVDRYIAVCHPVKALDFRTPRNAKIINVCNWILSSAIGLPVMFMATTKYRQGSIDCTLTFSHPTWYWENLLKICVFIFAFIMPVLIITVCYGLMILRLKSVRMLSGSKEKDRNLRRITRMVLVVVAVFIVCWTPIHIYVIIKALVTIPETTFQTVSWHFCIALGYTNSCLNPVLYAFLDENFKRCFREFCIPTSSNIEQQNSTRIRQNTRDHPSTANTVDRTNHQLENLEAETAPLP

Key:
[1] = target: Kappa-type opioid receptor (Homo sapiens, UniProt P41145); test: DRUGMATRIX: Opiate kappa (OP2, KOP) radioligand binding (ligand: [3H] Diprenorphine); details: hek293
Mu-type opioid receptor = Mu-type opioid receptor (Homo sapiens, UniProt P35372); test: DRUGMATRIX: Opiate mu (OP3, MOP) radioligand binding (ligand: [3H] Diprenorphine); details: cho-k1

CN(C)C(=O)Oc1cccc([N+](C)(C)C)c1.[Br-] [NEOSTIGMINE BROMIDE]
Not Active: IC50 [1] | Ki [1]

S=C=Nc1cccc2ccccc12
Not Active: IC50 [1] | Ki [1] | IC50 (Mu-type opioid receptor) | Ki (Mu-type opioid receptor)

COc1ccc(Cc2nccc3cc(OC)c(OC)cc23)cc1OC
Not Active: IC50 [1] | Ki [1] | IC50 (Mu-type opioid receptor) | Ki (Mu-type opioid receptor)

Cc1nnc2n1-c1ccc(Cl)cc1C(c1ccccc1)=NC2
Not Active: IC50 [1] | Ki [1] | IC50 (Mu-type opioid receptor) | Ki (Mu-type opioid receptor)

c1ccc2c(c1)cc1ccc3cccc4ccc2c1c34
Not Active: IC50 [1] | Ki [1] | IC50 (Mu-type opioid receptor) | Ki (Mu-type opioid receptor)

O=C(Nc1ccc(Br)cc1)c1cc(Br)cc(Br)c1O
Not Active: IC50 [1] | Ki [1] | IC50 (Mu-type opioid receptor) | Ki (Mu-type opioid receptor)
